Laboratory results published in patent US20170120592A1, “INK JET RECORDING METHOD AND INK JET RECORDING APPARATUS” (CANON KABUSHIKI KAISHA, priority 2015, published 2017).

Assay: Water-solubility of dye
Type: physicochemical
Settings: maximum mass of the dye in a sodium salt form that can be dissolved in 100 g of pure water at 20° C.

water-solubility of the dye: (12 g )
Compound: COc1cc(N=Nc2cccc(S(=O)(=O)O)c2)ccc1NC(=O)Nc1ccc(N=Nc2cccc(S(=O)(=O)O)c2)cc1OC [C.I. Direct Yellow 132]
